Assay results published in PubChem BioAssay AID463082 (The Scripps Research Institute Molecular Screening Center, 2010).
This is a selection; strong and weak results do not stand in their true shares. Some of these compounds have results that are not shown, active ones among them. Calls of active or inactive are those of the source.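 How the source made its calls: active means inhibition above the mean inhibition across the screen plus 3 SD (cut at about 25% in these data); inactive means the rest.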

Protein sequences, listed by entry. Tags and fused reporters are not part of them.
UniProt Q13093, whole entry: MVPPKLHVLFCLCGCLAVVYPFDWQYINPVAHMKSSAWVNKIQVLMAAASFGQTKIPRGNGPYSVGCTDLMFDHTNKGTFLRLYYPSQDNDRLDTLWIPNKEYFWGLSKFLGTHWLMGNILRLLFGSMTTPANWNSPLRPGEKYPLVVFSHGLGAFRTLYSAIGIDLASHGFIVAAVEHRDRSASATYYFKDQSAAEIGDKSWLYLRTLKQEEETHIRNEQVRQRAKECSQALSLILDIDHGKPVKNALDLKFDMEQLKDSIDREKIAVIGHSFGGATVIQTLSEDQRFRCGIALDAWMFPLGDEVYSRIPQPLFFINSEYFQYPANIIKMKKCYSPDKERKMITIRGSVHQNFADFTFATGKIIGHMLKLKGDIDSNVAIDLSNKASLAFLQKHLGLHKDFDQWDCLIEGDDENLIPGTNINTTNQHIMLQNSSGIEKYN

Biological target: Platelet-activating factor acetylhydrolase (Homo sapiens) (UniProt Q13093)
Assay: pPAFAH enzyme inhibitors, primary screen, biochemical, fluorescence polarization, human (AID 463082);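 further: inhibitors block binding of the rhodamine activity-based probe so polarization drops; 0% = enzyme with DMSO and 100% = wells lacking pPAFAH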
Details: recombinant pPAFAH, FP-rhodamine probe fluorescence polarization; at 3.39 µM; hits give high values

Compound | inhibition
CN(C)C1(CNC(=O)c2ccc(Br)cc2)CCCCC1 | inactive: 5.42%
COc1cc(C(=O)NCC2(N(C)C)CCCCC2)c([N+](=O)[O-])cc1OC | inactive: 0.24%
COc1cccc(C(=O)NCC2(N3CCCCC3)CCCCC2)c1 | inactive: -0.83%
COc1ccc(Cl)cc1C(=O)NCC1(N(C)C)CCCCC1 | inactive: 2.26%
O=C(NCC1(N2CCCCC2)CCCCC1)c1cccc(Cl)c1 | inactive: -3.61%
O=C(OC1CN2CCC1CC2)C(CO)(c1ccccc1)c1ccccc1 (centres undefined) | inactive: 3.33%
COc1ccc(Br)c(C(=O)NCC2(N3CCCCC3)CCCCC2)c1 | inactive: -2.17%
CN(C)c1cccc(C(=O)NCC2(N(C)C)CCCCC2)c1 | inactive: 3.37%
CC(C)Oc1ccc(C(=O)NCC2(N(C)C)CCCCC2)cc1 | inactive: 2.08%
O=C(NCC1(N2CCCCC2)CCCCC1)c1cc([N+](=O)[O-])ccc1Cl | inactive: 3.9%
CN1[C@@H]2CC[C@H]1CC(OC(=O)C(O)(c1ccccc1)c1ccccc1)C2 (some centres undefined) | inactive: 7.46%
CC(C)N1C(=O)CC2(CCN(CCOC(=O)C(O)(c3ccccc3)c3ccccc3)CC2)C1=O | inactive: -0.77%
CCN(CC)CC(C)C(C)OC(=O)C(O)(c1ccccc1)c1ccccc1 (centres undefined) | inactive: 0.21%
COc1cc(SC)ccc1C(=O)NCC1(N(C)C)CCCCC1 | inactive: -0.76%
Cc1ccc(C(=O)NCC2(N3CCCCC3)CCCCC2)cc1 | inactive: 1.45%
Cc1ccccc1C(=O)NCC1(N2CCCCC2)CCCCC1 | inactive: -1.55%
CN(C)c1ccc(C(=O)NCC2(N(C)C)CCCCC2)cc1 | inactive: -0.31%
CN(C)C1CCCC1OC(=O)C(O)(c1ccccc1)c1ccccc1 (centres undefined) | inactive: 5.67%
C=CCN1CCN(CCOC(=O)C(O)(c2ccccc2)c2ccccc2)CC1 | inactive: 0.13%
O=C(NCC1(N2CCCCC2)CCCCC1)c1cc(F)c(F)cc1Cl | inactive: 3.15%
CCN1CCCC(OC(=O)C2(O)c3ccccc3C=Cc3ccccc32)C1 (centres undefined) | inactive: -0.48%
Cc1cc(C(=O)NCC2(N3CCCCC3)CCCCC2)ccc1[N+](=O)[O-] | inactive: -3.63%
O=C(NCC1(N2CCCCC2)CCCCC1)c1cccc(Br)c1 | inactive: -0.81%
COc1ccc(C(=O)NCC2(N(C)C)CCCCC2)cc1 | inactive: 0.35%
